According to ChEMBL document CHEMBL1124051 (J Med Chem, 1988):
Where “and” joins values, the source holds several entries; their conditions need not be identical. Equal entries are not always repeated.

Protein sequences, listed by entry. Tags and fused reporters are not part of them.
UniProt P33535, whole entry, looked up: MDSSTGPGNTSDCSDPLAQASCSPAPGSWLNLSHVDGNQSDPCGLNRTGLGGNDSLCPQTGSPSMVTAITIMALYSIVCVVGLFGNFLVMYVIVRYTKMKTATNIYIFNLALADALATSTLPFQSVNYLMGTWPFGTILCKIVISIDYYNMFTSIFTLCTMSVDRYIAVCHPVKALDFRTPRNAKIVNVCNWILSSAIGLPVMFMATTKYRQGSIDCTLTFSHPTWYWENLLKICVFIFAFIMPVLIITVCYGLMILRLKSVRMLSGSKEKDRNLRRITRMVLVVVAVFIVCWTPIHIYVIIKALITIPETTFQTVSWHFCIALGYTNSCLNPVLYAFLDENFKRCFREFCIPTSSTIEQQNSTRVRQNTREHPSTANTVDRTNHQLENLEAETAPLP

Assays:
[1] = biological target: Mu-type opioid receptor (Rattus norvegicus) (UniProt P33535); experiment: Binding constant for the agonist state was measured for its ability to displace [3H]naloxone from opioid mu 1 receptor buffered homogenate of rat brain membranes; conditions: Membrane
[2] = biological target: Mu-type opioid receptor (Rattus norvegicus) (UniProt P33535); experiment: Binding constant for the antagonist state was measured for its ability to displace [3H]naloxone from opioid mu 1 receptor buffered homogenate of rat brain membranes; conditions: Membrane

Structure (SMILES) | KT [1] | Kp [2]
C=CCN1CCC23c4c5ccc(O)c4OC2C(O)C=CC3C1C5 (stereo unspecified) | 19.7 | 
C[C@H]1[C@@H]2Cc3ccc(O)cc3[C@]1(C)CCN2C [METAZOCINE] | 18.1 | 13.1
CN1CCC23c4c5cccc4OC2C(=O)CCC3C1C5 (stereo unspecified) | 16 | 12.4
CN1CCC23c4c5cccc4OC2C(=O)CCC3(O)C1C5 (stereo unspecified) | 15.8 | 13
CC1C2Cc3ccc(O)cc3C1(C)CCN2Cc1ccoc1 (stereo unspecified) |  | 13.1 and 19.8
C[C@H]1[C@H]2Cc3ccc(O)cc3[C@]1(C)CCN2CC1CC1 [CYCLAZOCINE] | 22.2 | 21.3
CC1C2Cc3ccc(O)cc3C1(C)CCN2Cc1ccco1 (stereo unspecified) |  | 14.1 and 19.2
CN1CCC23c4c5cccc4OC2CCCC3C1C5 (stereo unspecified) | 15.8 | 10.8
C=CCN1CCC2(C)c3cc(O)ccc3CC1C2C (stereo unspecified) | 19.6 and 18.7 | 19.8 and 15.1
CN1CCC23c4c5ccc(O)c4OC2C(O)CCC3C1C5 (stereo unspecified) | 19 | 13.5
CN1CCC23c4c5cccc4OC2C(O)C=CC3C1C5 (stereo unspecified) | 14.1 | 10.3
C=CCN1CCC23c4c5cccc4OC2C(O)CCC3C1C5 (stereo unspecified) | 14.1 | 14.6
